Assay results from US12226412B2, “Heteroaryl-ketone fused azadecalin glucocorticoid receptor modulators” (Corcept Therapeutics, Inc., priority 2012, dated 2025).

System: induction of TAT by dexamethasone in HepG2 cells
Assay: HepG2 tyrosine aminotransferase (TAT) assay
Format: cell-based
Details: Homo sapiens, read-out: average EC50 value (half-maximal effect) of induced TAT production
Experimental: Example 21. HepG2 Tyrosine Aminotransferase (TAT) Assay
Glucocorticoid mediated activation of TAT occurs by transactivation of glucocorticoid response elements in the TAT promoter by glucocorticoid receptor agonist complex.
TAT activity was measured as outlined in the literature by A. Ali et al., J. Med. Chem., 2004, 47, 2441-2452.
HepG2 cells were cultured using MEME media supplemented with 10% (v/v) foetal bovine serum; 2 mM L-glutamine and 1% (v/v) NEAA at 37° C., 5%/95% (v/v) CO2/air. The HepG2 cells were counted and adjusted to yield a density of 0.125×10^6 cells/ml in RPMI 1640 without phenol red, 10% (v/v) charcoal stripped FBS, 2 mM L-glutamine and seeded at 25,000 cells/well in 200 μl into 96 well, sterile, tissue culture micro titre plates, and incubated at 37° C., 5% CO2 for 24 hours
Growth media was removed and replaced with assay media {RPMI 1640 without phenol red, 2 mM L-glutamine+10 μM forskolin}. […] Compounds were serially half log diluted in 100% (v/v) dimethylsupfoxide from a 10 mM stock.
HepG2 cells were then lysed with 30 μl of cell lysis buffer containing a protease inhibitor cocktail for 15 minutes at 4° C. 155 μl of substrate mixture was then added containing 5.4 mM Tyrosine sodium salt, 10.8 mM alpha ketoglutarate and 0.06 mM pyridoxal 5′ phosphate in 0.1M potassium phosphate buffer (pH 7.4). […] The TAT activity product was measured by absorbance at […]. […]

C[C@@H]1C[C@H]2[C@@H]3CCC4=CC(=O)C=C[C@]4(C)[C@@]3(F)[C@@H](O)C[C@]2(C)[C@@]1(O)C(=O)CO [Dexamethasone, dexamethasone, reference compound]
EC50: 20 nM
